# Measured affinities in a library of Ab-91 heavy chain variants

Data: MIT Lincoln Laboratory AlphaSeq set, Engelhart et al. 2022, doi:10.1038/s41597-022-01779-4, as distributed in FLAb.

All variants were tested on one target, the spike HR2 peptide PDVDLGDISGINAS (SARS-CoV-2).

Parent: Ab-91, a human scFv built as VL, the linker GGGGSGGGGSGGGGS, VH. Only the CDRs of the heavy chain vary.
VL: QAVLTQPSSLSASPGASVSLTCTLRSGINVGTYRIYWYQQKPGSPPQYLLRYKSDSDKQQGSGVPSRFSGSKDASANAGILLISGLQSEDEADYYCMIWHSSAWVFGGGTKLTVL
VH: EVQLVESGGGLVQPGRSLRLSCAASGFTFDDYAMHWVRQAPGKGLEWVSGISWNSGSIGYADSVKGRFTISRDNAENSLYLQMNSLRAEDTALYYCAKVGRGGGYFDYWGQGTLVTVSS

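Phage display of a naive human antibody library on the peptide gave the parent. Library AAYL51 holds single substitutions and randomly drawn double and triple substitutions in the CDRs. In AlphaSeq, yeast of one mating type display the scFv and yeast of the other type display the target. After mating in shaken culture at 30 °C for 16 h, diploids were selected and their barcode pairs sequenced. The ratio of observed to expected reads was calibrated, replicate by replicate, on BCL2-family standards whose Kd was known from biolayer interferometry. Each pool was mated in three replicate cultures.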

Positions count from residue 1 of the parent VH; F29G puts G in place of F.
Scale: log10 of Kd in nM, estimated from mating counts; low values are strong binders.
Averages over replicates are reported, and they cover detected replicates only.
An entry "n.d." has no value in the source: the pair was not observed among the diploids in that replicate. This suggests poor binding but is not conclusive.
Background: pairings of library AAYL51 with three empty control strains gave a value in 21% of cases (median 4.54, 5th percentile 3.26). Values in that range, when seen in few replicates, are hard to tell from nonspecific mating. For each scFv, signals with the empty controls are counted beside the result, with their mean in brackets.
Parent in this assay: reference entry 1.86, copy in this library 0.88.

| changes | replicates, log10 nM | mean log10 Kd (nM) | control signals |
|---|---|---|---|
| F29G+Y60W+D62V | n.d. n.d. 4.22 | 4.22 | 2 of 9 (3.80) |
| M34C+R101T+D107N | n.d. n.d. n.d. | n.d. | 0 of 9 |
| A33P+I51F+Y105P | n.d. n.d. n.d. | n.d. | 2 of 9 (4.23) |
| W53P+G103I+G104F | 0.60 0.47 -0.14 | 0.31 | 4 of 9 (4.92) |
| M34S+Y60P+G103T | 4.30 n.d. n.d. | 4.30 | 2 of 9 (4.75) |
| A33E+S57V+Y105P | 4.60 4.98 5.18 | 4.92 | 7 of 9 (4.97) |
| I58D+Y60I+Y108S | 2.90 4.45 n.d. | 3.68 | 1 of 9 (2.91) |
| H35M+G103C+D107T | n.d. n.d. n.d. | n.d. | 2 of 9 (4.57) |
| G59N+V64I+K65D | 3.41 2.83 n.d. | 3.12 | 2 of 9 (2.92) |
| S57V+K65G+G100A | 3.66 4.22 3.19 | 3.69 | 3 of 9 (4.87) |
| D31P+D62N+K65D | n.d. n.d. n.d. | n.d. | 2 of 9 (4.46) |
| W53Q+V64T+Y105E | n.d. n.d. n.d. | n.d. | 1 of 9 (4.87) |
| A33E+R101G+F106R | n.d. n.d. n.d. | n.d. | 1 of 9 (4.65) |
| Y32G+G50V | n.d. n.d. n.d. | n.d. | 1 of 9 (4.37) |
| D30T+Y60N+Y105C | 3.65 n.d. 4.35 | 4.00 | 2 of 9 (3.62) |
| D31L+Y32L+G102Y | n.d. n.d. n.d. | n.d. | 2 of 9 (3.53) |
| H35K+A61C+G103D | n.d. n.d. n.d. | n.d. | 3 of 9 (4.58) |
| F29G+M34W+I58V | 0.45 0.53 -0.10 | 0.29 | 2 of 9 (3.33) |
| F29K+I51L+S63V | n.d. 4.42 n.d. | 4.42 | 1 of 9 (3.92) |
| S55T+F106L | 4.12 2.86 n.d. | 3.49 | 2 of 9 (4.99) |
| G56H+F106R+Y108G | 4.49 5.10 5.38 | 4.99 | 4 of 9 (4.94) |
| A61I+R101W+G104S | 4.09 n.d. n.d. | 4.09 | 0 of 9 |
| T28N+D30C+G50S | n.d. n.d. 4.50 | 4.50 | 1 of 9 (3.26) |
| I58N+F106N+Y108I | n.d. 4.44 3.54 | 3.99 | 1 of 9 (2.96) |
| G50I+G59H+K65T | 4.50 n.d. n.d. | 4.50 | 3 of 9 (5.53) |
| D62P+K65L+F106Y | n.d. n.d. 4.84 | 4.84 | 2 of 9 (4.89) |
| V99C+G100N | 4.48 n.d. 4.48 | 4.48 | 1 of 9 (3.78) |
| G59W+S63W+F106L | n.d. n.d. 4.06 | 4.06 | 0 of 9 |
| D31Y+R101C+G103P | n.d. n.d. n.d. | n.d. | 0 of 9 |
| G56F+I58R+Y105L | 3.17 3.45 2.83 | 3.15 | 0 of 9 |
| M34C+D62S+G104M | n.d. n.d. 4.64 | 4.64 | 2 of 9 (4.39) |
| I51T+W53A+G59N | 2.41 2.09 2.50 | 2.33 | 2 of 9 (4.29) |